Data reported in PubChem BioAssay AID1645853 (Buhrlage Lab, Dana-Farber Cancer Institute and Novartis …, 2021).
The list shows a part of the results, in another mix than the full data. The source made the active and inactive calls. No stated cut-off is given here; in the data, active means inhibition above about 30%; inactive means the rest.

The chains behind the UniProt entries cited, without tags or fusion partners. Where a name states a change or a piece, a line headed by the entry shows the natural chain unless it says otherwise.
UniProt P40818: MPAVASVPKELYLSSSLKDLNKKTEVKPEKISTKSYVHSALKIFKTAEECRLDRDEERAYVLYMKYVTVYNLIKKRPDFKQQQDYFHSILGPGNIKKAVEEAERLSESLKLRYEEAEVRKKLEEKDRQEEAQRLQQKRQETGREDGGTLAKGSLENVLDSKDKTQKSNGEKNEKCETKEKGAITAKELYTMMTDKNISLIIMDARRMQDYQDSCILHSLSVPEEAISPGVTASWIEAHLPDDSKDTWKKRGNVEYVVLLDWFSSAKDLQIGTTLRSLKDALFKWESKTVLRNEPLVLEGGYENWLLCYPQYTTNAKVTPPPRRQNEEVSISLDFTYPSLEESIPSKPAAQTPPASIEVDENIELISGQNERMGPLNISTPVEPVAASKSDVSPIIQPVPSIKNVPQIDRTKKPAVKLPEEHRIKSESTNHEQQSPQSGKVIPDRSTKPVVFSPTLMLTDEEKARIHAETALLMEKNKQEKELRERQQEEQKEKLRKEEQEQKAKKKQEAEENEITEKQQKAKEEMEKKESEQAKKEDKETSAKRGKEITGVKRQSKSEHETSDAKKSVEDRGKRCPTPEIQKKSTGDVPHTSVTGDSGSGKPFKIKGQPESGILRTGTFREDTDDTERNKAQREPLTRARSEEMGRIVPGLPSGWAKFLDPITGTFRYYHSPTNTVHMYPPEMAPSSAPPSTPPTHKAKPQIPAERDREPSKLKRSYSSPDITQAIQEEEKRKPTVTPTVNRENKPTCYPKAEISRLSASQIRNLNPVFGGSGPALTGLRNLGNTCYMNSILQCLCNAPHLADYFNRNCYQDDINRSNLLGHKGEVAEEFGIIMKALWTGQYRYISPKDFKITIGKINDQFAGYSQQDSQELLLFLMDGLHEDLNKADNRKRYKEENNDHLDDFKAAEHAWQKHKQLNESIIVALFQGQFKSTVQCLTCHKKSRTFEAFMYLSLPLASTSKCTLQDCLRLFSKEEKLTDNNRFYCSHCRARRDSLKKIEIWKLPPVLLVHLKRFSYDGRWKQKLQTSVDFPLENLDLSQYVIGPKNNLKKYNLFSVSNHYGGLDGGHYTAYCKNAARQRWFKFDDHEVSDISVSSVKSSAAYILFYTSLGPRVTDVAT

Each compound was assayed against Ubiquitin carboxyl-terminal hydrolase 8 (Homo sapiens) (UniProt P40818) (assay: blocks human USP8 ubiquitin-rhodamine cleavage (AID 1645853)). Details: purified USP8, Ub-rhodamine cleavage fluorescence, 30 min; at 20 µM; hits give high values.
In the case of `N#Cc1cccc(C(=O)N(Cc2cccnc2)C2CCN(CCc3ccccn3)CC2)c1`, the inhibition was inactive: 0.77%. With `CS(=O)(=O)c1ccc(C(=O)N(Cc2ccco2)C2CCN(CCc3ccccn3)CC2)cc1` the inhibition was inactive: -12.3%. `CS(=O)(=O)c1ccc(C(=O)N(Cc2cccnc2)C2CCN(CCc3ccc(Cl)cc3)CC2)cc1` was tested, and the inhibition was inactive: -47.7%. In the case of `COc1ccc(CCN2CCC(N(Cc3ccco3)C(=O)c3ccc(S(C)(=O)=O)cc3)CC2)cc1`, the inhibition was inactive: -8.79%. With `CN1C(=O)C2C(NC(=NCc3ccco3)N2CCc2ccccc2)N(C)C1=O` (stereo unspecified) the inhibition was inactive: -12.4%. `N#Cc1cccc(C(=O)N(Cc2ccco2)C2CCN(CCc3ccccn3)CC2)c1` was tested, and the inhibition was inactive: -7.3%. With `N#Cc1cccc(C(=O)N(Cc2ccco2)C2CCN(CCc3ccc(Cl)cc3)CC2)c1` the inhibition was inactive: -14.1%. For `Cc1[nH]c2c(N(C(=O)Nc3ccccc3)C3CCN(Cc4ccccc4)CC3)cccc2c1C`, the inhibition was inactive: -6.05%. For `COc1ccc(CCN2CCC(N(Cc3cccnc3)C(=O)c3cccc(C#N)c3)CC2)cc1`, the inhibition was inactive: -14.2%. For `O=C(COC(=O)C(O)(c1ccccc1)c1ccccc1)NCc1ccc2c(c1)OCO2`, the inhibition was inactive: -11.2%. With `O=C(c1ccc2c(c1)OCO2)N(Cc1ccco1)C1CCN(CCc2ccccn2)CC1` the inhibition was inactive: -14.1%.
